# Measured values reported in US9464084B2, “P2X7 modulators” (Janssen Pharmaceutica NV, priority 2013, dated 2016).
# Amino acid sequences for entries named in this document (tags omitted). A change or cut given only in a name is not applied to a line headed by its entry.
# UniProt Q99572: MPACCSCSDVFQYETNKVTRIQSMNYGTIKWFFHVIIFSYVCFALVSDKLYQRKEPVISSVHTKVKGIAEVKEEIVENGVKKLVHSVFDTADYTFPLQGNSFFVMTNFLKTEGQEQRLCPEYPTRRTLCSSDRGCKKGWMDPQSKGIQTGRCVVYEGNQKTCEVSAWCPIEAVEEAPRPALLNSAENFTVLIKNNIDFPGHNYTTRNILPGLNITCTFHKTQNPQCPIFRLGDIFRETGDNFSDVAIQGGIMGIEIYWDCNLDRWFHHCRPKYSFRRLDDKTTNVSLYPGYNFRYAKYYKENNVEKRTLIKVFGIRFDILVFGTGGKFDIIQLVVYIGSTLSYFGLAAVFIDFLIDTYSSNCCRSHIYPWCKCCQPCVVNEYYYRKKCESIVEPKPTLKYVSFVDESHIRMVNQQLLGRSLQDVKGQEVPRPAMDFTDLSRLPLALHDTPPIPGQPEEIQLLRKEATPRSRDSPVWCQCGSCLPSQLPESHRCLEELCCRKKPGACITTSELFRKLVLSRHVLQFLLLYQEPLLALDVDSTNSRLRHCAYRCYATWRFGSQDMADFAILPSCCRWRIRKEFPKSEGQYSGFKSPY
# UniProt Q64663: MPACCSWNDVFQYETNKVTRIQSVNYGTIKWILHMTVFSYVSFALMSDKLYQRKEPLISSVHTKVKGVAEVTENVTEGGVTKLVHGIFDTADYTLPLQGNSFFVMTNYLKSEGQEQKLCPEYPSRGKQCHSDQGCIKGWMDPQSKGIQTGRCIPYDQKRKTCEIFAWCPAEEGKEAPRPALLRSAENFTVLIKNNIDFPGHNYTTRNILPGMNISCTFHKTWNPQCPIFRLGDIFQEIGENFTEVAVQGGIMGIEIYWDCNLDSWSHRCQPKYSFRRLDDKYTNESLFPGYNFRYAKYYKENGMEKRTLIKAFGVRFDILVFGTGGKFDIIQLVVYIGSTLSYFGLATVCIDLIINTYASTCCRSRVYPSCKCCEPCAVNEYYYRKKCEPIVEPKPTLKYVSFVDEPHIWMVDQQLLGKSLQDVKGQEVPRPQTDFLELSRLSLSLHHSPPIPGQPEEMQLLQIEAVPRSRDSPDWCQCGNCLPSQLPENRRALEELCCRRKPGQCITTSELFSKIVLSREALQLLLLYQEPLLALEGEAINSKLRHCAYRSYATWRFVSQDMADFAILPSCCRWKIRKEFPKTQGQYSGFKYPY
# Assays:
# [1] = molecular target: T1, P2X7 (Homo sapiens (Human), UniProt Q99572); test: P2X7 antagonism in human whole blood (LPS + Bz-ATP induced IL-1β release, ELISA); type: cell-based; settings: LPS 30 ng/ml, Bz-ATP 1 mM
# [2] = molecular target: T1, P2X7; test: Ca2+ flux (FLIPR) in 1321N1 cells expressing recombinant human P2X7 channel; type: cell-based; settings: 250 μM BzATP;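 also: Calcium-4 dye-loaded cells exposed to compound for 30 min before agonist addition, fluorescence change read 180 s after agonist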
# [3] = molecular target: rat P2X7 (Rattus norvegicus (Rat), UniProt Q64663); test: Ca2+ flux (FLIPR) in 1321N1 cells expressing recombinant rat P2X7 channel; type: cell-based; settings: 250 μM BzATP;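 also: Calcium-4 dye fluorescence change read 180 s after agonist addition, following 30 min cell preincubation with test compound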
# [4] = molecular target: T1, P2X7; test: Radioligand binding, tritiated A-804598, human P2X7-1321N1 cell membranes; settings: 1 hour at 4° C.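 Also: ki obtained from the binding IC50 after correction for tracer concentration and tracer affinity.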
IC50 [2] [nM],IC50 [3] [nM],Ki [4] [nM],Compound,IC50 [1] [nM]
> 10000,> 10000,–,"C[C@@H]1c2nnn(-c3cnccn3)c2CCN1C(=O)c1ccc(F)c(Cl)c1Cl (single isomer, unassigned) [Example 143, (R*)-(2,3-Dichloro-4-fluorophenyl)(4-methyl-1-(pyrazin-2-yl)-6,7-dihydro-1H-[1,2,3]triazolo[4,5-c]pyridin-5(4H)-yl)methanone]",–
12.6,–,–,"Cn1nc(-c2cccnc2)c2c1CN(C(=O)c1cccc(C(F)(F)F)c1Cl)CC2 [Example 108, 6-{[2-Chloro-3-(trifluoromethyl)phenyl]carbonyl}-1-methyl-3-pyridin-3-yl-4,5,6,7-tetrahydro-1H-pyrazolo[3,4-c]pyridine]",–
12.6,83.4,–,"CC1Cc2c(nnn2-c2ncc(F)cn2)CN1C(=O)c1ccc(Cl)c(F)c1Cl (stereo not drawn) [Example 216, 5-[(2,4-Dichloro-3-fluorophenyl)carbonyl]-1-(5-fluoropyrimidin-2-yl)-6-methyl-4,5,6,7-tetrahydro-1H-[1,2,3]triazolo[4,5-c]pyridine]",–
6,–,100,"Cc1cccc(-n2nnc3c2CCN(C(=O)c2cccc(Cl)c2Cl)C3C)n1 (stereo not drawn) [Example 233, (2,3-dichlorophenyl)(4-methyl-1-(6-methylpyridin-2-yl)-6,7-dihydro-1H-[1,2,3]triazolo[4,5-c]pyridin-5(4H)-yl)methanone]",–
3.2,128,36.3,"Cc1ccnc(-n2nnc3c2CCN(C(=O)c2cccc(Cl)c2Cl)C3C)c1 (stereo not drawn) [Example 237, (2,3-dichlorophenyl)(4-methyl-1-(4-methylpyridin-2-yl)-6,7-dihydro-1H-[1,2,3]triazolo[4,5-c]pyridin-5(4H)-yl)methanone]",–
100,–,–,"CC1Cc2c(nnn2-c2ccccc2)C(C)N1C(=O)c1cccc(C(F)(F)F)c1Cl (stereo not drawn) [Example 240, (2-Chloro-3-(trifluoromethyl)phenyl)(4,6-dimethyl-1-phenyl-6,7-dihydro-1H-[1,2,3]triazolo[4,5-c]pyridin-5(4H)-yl)methanone]",–
16,15,63.1,"CC1Cc2c(nnn2-c2ccc(F)cc2)C(C)N1C(=O)c1cccc(C(F)(F)F)c1Cl (stereo not drawn) [Example 243, (2-Chloro-3-(trifluoromethyl)phenyl)(1-(4-fluorophenyl)-4,6-dimethyl-6,7-dihydro-1H-[1,2,3]triazolo[4,5-c]pyridin-5(4H)-yl)methanone]",–
240,673,316,"C[C@@H]1Cc2c(nnn2-c2ccc(F)cc2)[C@@H](C)N1C(=O)c1cccc(C(F)(F)F)c1Cl [Example 284, (2-chloro-3-(trifluoromethyl)phenyl)((4R,6R)-1-(4-fluorophenyl)-4,6-dimethyl-6,7-dihydro-1H-[1,2,3]triazolo[4,5-c]pyridin-5(4H)-yl)methanone]",–
671,–,–,"C[C@H]1Cc2c(nnn2-c2ccc(F)cc2)[C@H](C)N1C(=O)c1cccc(C(F)(F)F)c1Cl [Example 285, (2-chloro-3-(trifluoromethyl)phenyl)((4S,6S)-1-(4-fluorophenyl)-4,6-dimethyl-6,7-dihydro-1H-[1,2,3]triazolo[4,5-c]pyridin-5(4H)-yl)methanone]",–
5,5.6,10,"C[C@@H]1Cc2c(nnn2-c2ccn[nH]2)[C@H](C)N1C(=O)c1cccc(C(F)(F)F)c1Cl [Example 297, (2-chloro-3-(trifluoromethyl)phenyl)((4S,6R)-4,6-dimethyl-1-(1H-pyrazol-5-yl)-6,7-dihydro-1H-[1,2,3]triazolo[4,5-c]pyridin-5(4H)-yl)methanone]",–
8.1,–,20,"Cc1ccnc(-n2nnc3c2CCN(C(=O)c2cccc(C(F)(F)F)c2Cl)C3C)c1 (stereo not drawn) [Example 299, (2-chloro-3-(trifluoromethyl)phenyl)(4-methyl-1-(4-methylpyridin-2-yl)-6,7-dihydro-1H-[1,2,3]triazolo[4,5-c]pyridin-5(4H)-yl)methanone]",–
9.2,2.6,5,"C[C@@H]1c2nnn(-c3ccn[nH]3)c2C[C@H](C)N1C(=O)c1cccc(C(F)(F)F)c1Cl [Example 310, (2-chloro-3-(trifluoromethyl)phenyl)((4R,6S)-4,6-dimethyl-1-(1H-pyrazol-5-yl)-6,7-dihydro-1H-[1,2,3]triazolo[4,5-c]pyridin-5(4H)-yl)methanone]",–
10000,–,–,"C[C@H]1Cc2c(nnn2-c2ccn[nH]2)[C@H](C)N1C(=O)c1cccc(C(F)(F)F)c1Cl [Example 319, (2-chloro-3-(trifluoromethyl)phenyl)((4S,6S)-4,6-dimethyl-1-(1H-pyrazol-5-yl)-6,7-dihydro-1H-[1,2,3]triazolo[4,5-c]pyridin-5(4H)-yl)methanone]",–

# More lines, now with the values behind:
Compound,IC50 [2] [nM],IC50 [3] [nM],Ki [4] [nM],IC50 [1] [nM]
"C[C@@H]1c2ncn(-c3ccccn3)c2CCN1C(=O)c1cccc(C(F)(F)F)c1F (single isomer, unassigned) [Example 42, (4R*)-5-{[2-Fluoro-3-(trifluoromethyl)phenyl]carbonyl}-4-methyl-1-pyridin-2-yl-4,5,6,7-tetrahydro-1H-imidazo[4,5-c]pyridine]",–,–,–,2510
"C[C@@H]1c2ncn(-c3ccc(F)cc3)c2CCN1C(=O)c1cccc(C(F)(F)F)c1Cl (single isomer, unassigned) [Example 46, (4R*)-5-{[2-Chloro-3-(trifluoromethyl)phenyl]carbonyl}-1-(4-fluorophenyl)-4-methyl-4,5,6,7-tetrahydro-1H-imidazo[4,5-c]pyridine]",–,–,–,3980
"C[C@@H]1c2nnn(-c3cnccn3)c2CCN1C(=O)c1cccc(C(F)(F)F)c1Cl (single isomer, unassigned) [Example 74, (4R*)-5-{[2-Chloro-3-(trifluoromethyl)phenyl]carbonyl}-4-methyl-1-pyrazin-2-yl-4,5,6,7-tetrahydro-1H-[1,2,3]triazolo[4,5-c]pyridine]",–,–,–,5010
"C[C@H]1c2nnn(-c3cnccn3)c2CCN1C(=O)c1cccc(C(F)(F)F)c1Cl (single isomer, unassigned) [Example 75, (4 S*)-5-{[2-Chloro-3-(trifluoromethyl)phenyl]carbonyl}-4-methyl-1-pyrazin-2-yl-4,5,6,7-tetrahydro-1H-[1,2,3]triazolo[4,5-c]pyridine]",–,–,–,13
"C[C@H]1c2nnn(-c3ncccn3)c2CCN1C(=O)c1cccc(C(F)(F)F)c1Cl (single isomer, unassigned) [Example 87, (4S*)-5-{[2-Chloro-3-(trifluoromethyl)phenyl]carbonyl}-4-methyl-1-pyrimidin-2-yl-4,5,6,7-tetrahydro-1H-[1,2,3]triazolo[4,5-c]pyridine]",–,–,–,3310
"CC1c2ncn(-c3ccccc3)c2CCN1C(=O)c1cccc(C(F)(F)F)c1Cl (stereo not drawn) [Example 12, (2-Chloro-3-(trifluoromethyl)phenyl)(4-methyl-1-phenyl-6,7-dihydro-1H-imidazo[4,5-c]pyridin-5(4H)-yl)methanone]",–,–,–,631
"O=C(c1cccc(C(F)(F)F)c1Cl)N1CCc2c(ncn2-c2ccccn2)C1CF (stereo not drawn) [Example 32, (2-Chloro-3-(trifluoromethyl)phenyl)(4-(fluoromethyl)-1-(pyridin-2-yl)-6,7-dihydro-1H-imidazo[4,5-c]pyridin-5(4H)-yl)methanone]",–,–,–,251
"CC1c2nnn(-c3cnccn3)c2C=CN1C(=O)c1cccc(C(F)(F)F)c1Cl (stereo not drawn) [Example 72, 5-{[2-Chloro-3-(trifluoromethyl)phenyl]carbonyl}-4-methyl-1-pyrazin-2-yl-4,5-dihydro-1H-[1,2,3]triazolo[4,5-c]pyridine]",–,–,–,126
"CC1c2nnn(-c3cnccn3)c2CCN1C(=O)c1cccc(C(F)(F)F)c1Cl (stereo not drawn) [Example 73, 5-{[2-Chloro-3-(trifluoromethyl)phenyl]carbonyl}-4-methyl-1-pyrazin-2-yl-4,5,6,7-tetrahydro-1H-[1,2,3]triazolo[4,5-c]pyridine]",–,–,–,16
"O=C(c1cccc(C(F)(F)F)c1Cl)N1CCc2c(nnn2-c2cnccn2)C1c1ccccc1 (stereo not drawn) [Example 77, 5-{[2-Chloro-3-(trifluoromethyl)phenyl]carbonyl}-4-phenyl-1-pyrazin-2-yl-4,5,6,7-tetrahydro-1H-[1,2,3]triazolo[4,5-c]pyridine]",126,–,–,–
"CC1c2nnn(-c3ncccn3)c2CCN1C(=O)c1cccc(C(F)(F)F)c1Cl (stereo not drawn) [Example 80, 5-{[2-Chloro-3-(trifluoromethyl)phenyl]carbonyl}-4-methyl-1-pyrimidin-2-yl-4,5,6,7-tetrahydro-1H-[1,2,3]triazolo[4,5-c]pyridine]",–,–,–,16
"CC1c2nnn(-c3ncccc3F)c2CCN1C(=O)c1cccc(C(F)(F)F)c1Cl (stereo not drawn) [Example 84, 5-{[2-Chloro-3-(trifluoromethyl)phenyl]carbonyl}-1-(3-fluoropyridin-2-yl)-4-methyl-4,5,6,7-tetrahydro-1H-[1,2,3]triazolo[4,5-c]pyridine]",–,–,–,200
"O=C(c1cccc(C(F)(F)F)c1Cl)N1CCc2c(nnn2-c2cnccn2)C1 [Example 91, 5-{[2-Chloro-3-(trifluoromethyl)phenyl]carbonyl}-1-pyrazin-2-yl-4,5,6,7-tetrahydro-1H-[1,2,3]triazolo[4,5-c]pyridine]",–,–,–,316
"Cc1cc(C)nc(-n2nnc3c2CCN(C(=O)c2cccc(C(F)(F)F)c2Cl)C3C)n1 (stereo not drawn) [Example 253, (2-Chloro-3-(trifluoromethyl)phenyl)(1-(4,6-dimethylpyrimidin-2-yl)-4-methyl-6,7-dihydro-1H-[1,2,3]triazolo[4,5-c]pyridin-5(4H)-yl)methanone]",185,–,195,–
"C[C@@H]1c2nnn(-c3ccc(F)cc3)c2C[C@H](C)N1C(=O)c1cccc(C(F)(F)F)c1Cl [Example 287, (2-chloro-3-(trifluoromethyl)phenyl)((4R,6S)-1-(4-fluorophenyl)-4,6-dimethyl-6,7-dihydro-1H-[1,2,3]triazolo[4,5-c]pyridin-5(4H)-yl)methanone]",7,2.8,14.1,–
